119 compounds from PubChem BioAssay AID624170 (National Center for Advancing Translational Sciences (NCATS), 2012) can be followed below.

By UniProt entry, the sequences of proteins in these tests, tags left out. Where a name states a change or a piece, a line headed by the entry shows the natural chain unless it says otherwise.
UniProt O94925: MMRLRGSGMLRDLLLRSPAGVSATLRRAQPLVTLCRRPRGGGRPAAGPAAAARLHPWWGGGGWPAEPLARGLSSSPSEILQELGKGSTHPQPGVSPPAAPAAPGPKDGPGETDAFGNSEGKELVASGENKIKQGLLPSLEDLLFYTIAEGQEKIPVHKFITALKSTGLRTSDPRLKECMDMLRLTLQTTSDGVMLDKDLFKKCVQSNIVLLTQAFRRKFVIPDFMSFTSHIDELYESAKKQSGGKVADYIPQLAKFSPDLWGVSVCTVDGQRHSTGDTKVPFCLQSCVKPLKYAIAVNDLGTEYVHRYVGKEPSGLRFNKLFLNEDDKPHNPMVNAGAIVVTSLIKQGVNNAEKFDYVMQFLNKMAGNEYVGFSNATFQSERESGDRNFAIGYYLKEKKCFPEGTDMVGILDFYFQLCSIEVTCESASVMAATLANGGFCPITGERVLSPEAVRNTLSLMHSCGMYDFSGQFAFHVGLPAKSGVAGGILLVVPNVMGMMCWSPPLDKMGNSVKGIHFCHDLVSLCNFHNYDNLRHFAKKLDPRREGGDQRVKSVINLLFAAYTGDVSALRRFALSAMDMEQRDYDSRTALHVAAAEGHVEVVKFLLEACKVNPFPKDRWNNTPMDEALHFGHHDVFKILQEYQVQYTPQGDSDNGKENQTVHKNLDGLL

Only a part is listed here, and it is no random draw. Records with an inconclusive call do not appear. Entries that show only a call come without a potency. Activity calls are given as the source filed them. The call rests on the fitted dose curve; in most records, active means well fitted inhibition curve with a large enough effect; inconclusive means small, poorly fitted or top-dose-only effect, or another doubt; inactive means no such curve, though single readings can be large or run the other way.
Potency means the concentration at half of the fitted maximal effect.

The target of this assay is Glutaminase kidney isoform, mitochondrial (Homo sapiens) (UniProt O94925). Briefly: qHTS for Inhibitors of Glutaminase (GLS). The settings on record: GLS enzymatic activity, qHTS titration; series mostly up to 45.5 µM.
Regarding `Cc1cccc(OCC(=O)OC2CN3CCC2CC3)c1` (centres undefined), the Potency entry was “inactive”.

In the case of `O=[As](O)(c1cccc(O)c1)c1cccc(O)c1`, the Potency result is “inactive”.

As for `CS(=O)(=O)c1ccc(Cl)c(NC(=O)COC(=O)C(O)(c2ccccc2)c2ccccc2)c1`, the Potency entry was “inactive”.

`O=[As](O)(O)c1cccnc1`: the Potency result was “inactive”.

Turning to `COc1cc(C(=O)NCC2(N3CCOCC3)CCCCC2)cc(Cl)c1OC(C)C`, the Potency result is “inactive”.

Consider `CN(C(=O)Cc1ccc(Cl)c(Cl)c1)[C@@H]1CC[C@]2(CCCO2)C[C@H]1N1CCCC1`, for which the Potency entry is “inactive”.

As to `O=C(OC1CN2CCC1CC2)c1ccc(Cl)cc1` (centres undefined), the Potency result was “inactive”.

As for `CCOP(=O)(Nc1cccc2ccccc12)OCC`, the Potency entry is “inactive”.

`COc1cc(C2NCCC3(OCCO3)C2(C)C)cc(OC)c1OC` (centres undefined): the Potency result is “inactive”.

`CCCOP(=S)(Nc1nc(N)cc(=O)[nH]1)OCCC`: the Potency entry is “inactive”.

Turning to `Cc1ccc(NCCc2c([N+](=O)[O-])cc([N+](=O)[O-])cc2[N+](=O)[O-])cc1`, the Potency result is “inactive”.

For `Nc1cccc2c([As](=O)(O)O)cccc12`, the Potency entry was “inactive”.

In the case of `O=C(O)COc1ccc([As](=O)(O)O)cc1[N+](=O)[O-]`, the Potency result was “inactive”.

`Nc1ccccc1[As](=O)(O)c1ccccc1`: the Potency entry was “inactive”.

Consider `O=P(Nc1nccs1)(Oc1ccccc1)Oc1ccccc1`, for which the Potency entry was “inactive”.

Regarding `O=P(Nc1nccs1)(c1ccccc1)c1nc2ccccc2s1` (centres undefined), the Potency entry is “inactive”.

In the case of `CCOP1(=S)c2c(C)nn(CCC#N)c2N=C(c2ccccc2F)N1C` (centres undefined), the Potency entry was “inactive”.

As for `CN(C(=O)Cc1ccc(Cl)c(Cl)c1)[C@H]1CC[C@@]2(CCCO2)C[C@@H]1N1CCCC1`, the Potency entry was “inactive”.

Turning to `O=[N+]([O-])c1ccc2c(c1)nnn2O`, the Potency entry is “inactive”.

For `CN(C)C(=O)c1cc([N+](=O)[O-])cc2c1-c1c(cc([N+](=O)[O-])cc1[N+](=O)[O-])C2=O`, the Potency entry was “inactive”.

`CCOP1(=S)c2c(C)nn(CCC#N)c2N=C(c2ccc(F)cc2)N1C` (centres undefined): the Potency entry is “inactive”.

Turning to `CN(C(=O)Cc1ccccc1)[C@@H]1CC[C@]2(CCCO2)C[C@H]1N1CCCC1`, the Potency result was “inactive”.

As to `N#CCCN(C(=O)COC(=O)C(O)(c1ccccc1)c1ccccc1)c1ccc(F)cc1`, the Potency entry was “inactive”.

For the compound `NC(=O)Nc1ccc([As](=O)(O)O)cc1`, the Potency entry is “inactive”.

With `CCCC1OP(=O)(Nc2ccccc2)OCC1CC` (centres undefined), the Potency entry was “inactive”.

For `O=C(/C=C/c1ccccc1)OC1CN2CCC1CC2` (centres undefined), the Potency entry was “inactive”.

For `CN(C)C1(CNC(=O)c2ccc(S(C)(=O)=O)cc2)CCCCC1`, the Potency result was “inactive”.

Consider `Cc1ccc(C(=O)OC2CN3CCC2CC3)cc1` (centres undefined), for which the Potency entry is “inactive”.

Regarding `CC1CCC(C(C)C)C(OP(=O)(Nc2ccccn2)c2ccccc2)C1` (centres undefined), the Potency result is “inactive”.

Turning to `Cc1nn(-c2ccccc2)c2c1P(=O)(N1CCOCC1)N(C)C(c1ccccc1)=N2` (centres undefined), the Potency result was “inactive”.

`Cc1ccc(OCC(=O)OC2CN3CCC2CC3)cc1` (centres undefined): the Potency entry was “inactive”.

With `O=[As](O)(c1cccs1)c1cccs1`, the Potency entry is “inactive”.

In the case of `NS(=O)(=O)c1cccc(NC(=O)COC(=O)C(O)(c2ccccc2)c2ccccc2)c1`, the Potency entry was “inactive”.

On to `O=P1(Nc2ccc(Br)cn2)COc2ccccc2OC1`, for which the Potency entry is “inactive”.

On to `Nc1cccc([As](=O)(O)c2ccccc2)c1`, for which the Potency result was “inactive”.

`O=P1(Nc2ncccn2)COc2ccccc2OC1`: the Potency result was “inactive”.

Turning to `CC(C)(C)C(=O)NC(Sc1ncccn1)C(Cl)(Cl)Cl` (centres undefined), the Potency entry was “inactive”.

With `O=P1(N(CCCl)CCCl)NCCC(C(F)(F)F)O1` (centres undefined), the Potency result is “inactive”.

On to `CCOP(=O)(Nc1ccc(C)cn1)OCC`, for which the Potency result is “inactive”.

For the compound `CN(CCCl)Cc1cc(Cl)c(NC2=NCCN2)c(Cl)c1`, the Potency entry was “inactive”.

Regarding `CCOP(=O)(NC(=NC(C)c1ccccc1)NC(C)c1ccccc1)OCC` (centres undefined), the Potency result was “inactive”.

Regarding `CCC1=CC2Cc3nc4ccc(Cl)cc4c(N)c3C(C1)C2` (centres undefined), the Potency result is “inactive”.

For `O=P1(Nc2ccccn2)COc2ccccc2OC1`, the Potency result is “inactive”.

On to `CC1(CBr)Cn2c(nc3ccccc3c2=O)S1` (centres undefined), for which the Potency result is “inactive”.

On to `CN(C(=O)Cc1ccc(Cl)c(Cl)c1)[C@@H]1CCCC[C@H]1N1CCCC1`, for which the Potency result was “inactive”.

Take `CC(C)/C=N\N=C(\N)N[N+](=O)[O-]`: the Potency entry was “inactive”.

As to `COc1ccccc1CNC(=O)COC(=O)C(O)(c1ccccc1)c1ccccc1`, the Potency entry was “inactive”.

Take `O=C(Nc1ccncc1[N+](=O)[O-])c1ccc([N+](=O)[O-])cc1[N+](=O)[O-]`: the Potency result was “inactive”.

`O=C(COc1ccccc1)OC1CN2CCC1CC2` (centres undefined): the Potency entry is “inactive”.

As for `O=C(O)C(=O)c1ccc(N(CCCl)CCCl)cc1`, the Potency result is “inactive”.

As to `COC(=O)C1(C)COP(=O)(N2CCCC2)OC1` (centres undefined), the Potency result is “inactive”.

Regarding `COP1(=S)c2c(C)nn(CCC#N)c2N=C(c2ccc(F)cc2)N1C` (centres undefined), the Potency entry was “inactive”.

For the compound `CCC(C)N(CC(C)C)C(=S)SC(NC(C)=O)C(Cl)(Cl)Cl` (centres undefined), the Potency entry was “inactive”.

For `CCOC(=O)c1ccc(NC(=O)C(C)(CCl)SC)cc1` (centres undefined), the Potency result is “inactive”.

For the compound `CSc1ccc(Nc2c([N+](=O)[O-])cc([N+](=O)[O-])cc2[N+](=O)[O-])cc1`, the Potency entry is “inactive”.

Consider `O=C(OC1CN2CCC1CC2)c1cccc([N+](=O)[O-])c1` (centres undefined), for which the Potency entry is “inactive”.

As for `Cc1cc(SC(NC(=O)c2ccccc2)C(Cl)(Cl)Cl)nc(C(C)C)n1` (centres undefined), the Potency result is “inactive”.

For the compound `CCCCOc1ccc(C(=O)NCC2(N3CCCCC3)CCCCC2)cc1OC`, the Potency entry was “inactive”.

`COP(=O)(OC)N1CC1c1ccccc1` (centres undefined): the Potency result was “inactive”.

Consider `CC1CCNP(=O)(N(CCCl)CCCl)O1` (centres undefined), for which the Potency result is “inactive”.

For `O=C(O)C(O)c1ccc(N(CCCl)CCCl)cc1` (centres undefined), the Potency entry was “inactive”.

On to `CCOC(=O)Nc1ccc([As](=O)(O)O)c(O)c1`, for which the Potency result was “inactive”.

For `O=[N+]([O-])c1ccc(Nc2ccc(Oc3ccc([N+](=O)[O-])cc3[N+](=O)[O-])cc2)c([N+](=O)[O-])c1`, the Potency result was “inactive”.

`Cc1cc(SC(NC=O)C(Cl)(Cl)Cl)ncn1` (centres undefined): the Potency entry was “inactive”.

On to `O=P(Nc1ccccn1)(c1cccc2ccccc12)c1cccc2ccccc12`, for which the Potency result was “inactive”.

`CCOC(=O)Nc1cccc([As](=O)(O)O)c1`: the Potency result is “inactive”.

For `Cc1ccc2nc3c(c(C)c2c1)CC(C(Cl)Cl)S3` (centres undefined), the Potency entry is “inactive”.

Take `Cc1ccc(OP(=O)(Nc2ccc([N+](=O)[O-])cn2)Oc2ccc(C)cc2)cc1`: the Potency result was “inactive”.

Turning to `[N-]=[N+]=NC1CCCCC1NC(=O)c1cc([N+](=O)[O-])cc([N+](=O)[O-])c1` (centres undefined), the Potency result is “inactive”.

`O=[N+]([O-])c1ccc(-c2cc([N+](=O)[O-])c(O)c([N+](=O)[O-])c2)cc1`: the Potency is active: 17.8 µM.

For `COc1cc(C(=O)NCC2(N3CCOCC3)CCCCC2)ccc1OCC(C)C`, the Potency result was “inactive”.

In the case of `O=[As](O)(c1ccc(O)cc1)c1ccccc1O`, the Potency entry is “inactive”.

As for `C[As](=O)(O)c1cccc(C(=O)O)c1`, the Potency entry was “inactive”.

In the case of `O=[N+]([O-])c1cc([N+](=O)[O-])c(-c2ccn[nH]2)s1`, the Potency result is “inactive”.

Regarding `CC(C)NC(=O)NP(=O)(Oc1ccccc1)Oc1ccccc1`, the Potency result is “inactive”.

Regarding `CCN(CC)C(=S)SC(NC=O)C(Cl)(Cl)Cl` (centres undefined), the Potency result is “inactive”.

Turning to `O=C(OC1CN2CCC1CC2)c1cccc2[nH]cnc12` (centres undefined), the Potency entry was “inactive”.

As for `COC(=O)C1(C)COP(=O)(N2CCCCCC2)OC1` (centres undefined), the Potency entry is “inactive”.

Consider `CC(C)c1ccc(OP(=O)(Nc2ccccn2)Oc2ccccc2F)cc1` (centres undefined), for which the Potency entry was “inactive”.

As to `ClCCSc1nnc(-c2cccnc2)o1`, the Potency result is “inactive”.

As for `COc1cc(I)ccc1[As](=O)(O)O`, the Potency entry is “inactive”.

Consider `COc1ccc2nc(NP(=O)(c3ccccc3)c3ccccc3)sc2c1`, for which the Potency entry was “inactive”.

In the case of `O=P1(N(CCCl)CCCl)Nc2ccccc2N1`, the Potency result is “inactive”.

Turning to `O=P1(N(CCCl)CCCl)OCCCN1CCCl` (centres undefined), the Potency result is “inactive”.

In the case of `Cc1cc(=O)[nH]c(N[N+](=O)[O-])n1`, the Potency result was “inactive”.

Turning to `O=C(OC1CN2CCC1CC2)C12CC3CC(CC(C3)C1)C2` (centres undefined), the Potency result was “inactive”.

`Cc1c2c(nc3ccccc13)SC(C(Cl)Cl)C2` (centres undefined): the Potency result was “inactive”.

On to `COc1ccc(N/C(=N/P(=O)(N2CCOCC2)N2CCOCC2)N2CCOCC2)cc1`, for which the Potency entry was “inactive”.

`O=[N+]([O-])c1cc(Oc2ccc([N+](=O)[O-])cc2C(F)(F)F)cc([N+](=O)[O-])c1`: the Potency entry was “inactive”.

In the case of `Cc1ccc(OP(=O)(Nc2nccs2)Oc2ccc(C)cc2)cc1`, the Potency entry is “inactive”.

For the compound `COc1ccccc1OP(=O)(Nc1ccc(C)cn1)Oc1ccccc1OC`, the Potency result was “inactive”.

With `CN1CCCC(OC(=O)C(c2ccccc2)c2ccccc2)C1` (centres undefined), the Potency result is “inactive”.

For `Clc1ccc(Cl)c(NC2=NCC(CBr)S2)c1` (centres undefined), the Potency result is “inactive”.

For `NC(=O)c1cc([N+](=O)[O-])cc([N+](=O)[O-])c1N`, the Potency result is “inactive”.

Take `Cc1ccc(N/C(=N/P(=O)(N2CCOCC2)N2CCOCC2)N2CCOCC2)cc1`: the Potency result was “inactive”.

Take `CN(C(=O)Cc1ccc(Cl)c(Cl)c1)[C@H]1CCCC[C@H]1N1CCCC1`: the Potency result is “inactive”.

With `O=[N+]([O-])C1C(O)C(O)C([N+](=O)[O-])C(O)C1O` (centres undefined), the Potency entry was “inactive”.

As for `Nc1cc(N)c2nonc2c1[N+](=O)[O-]`, the Potency result is “inactive”.

`CC(C)CC(=O)NC(Sc1ccc(Cl)cc1)C(Cl)(Cl)Cl` (centres undefined): the Potency result was “inactive”.

With `O=C(NC(Sc1ccncn1)C(Cl)(Cl)Cl)c1ccccc1` (centres undefined), the Potency entry is “inactive”.

Consider `Oc1ccccc1CNc1ccccn1`, for which the Potency entry was “inactive”.

`CN(C(=O)Cc1ccc(Cl)c(Cl)c1)[C@H]1CCCC[C@@H]1N1CCCC1`: the Potency result was “inactive”.

As to `Cc1ccc(NP(=O)(Oc2ccccc2F)Oc2ccccc2F)nc1`, the Potency result is “inactive”.

Turning to `Cc1cc(SC(NC(=O)c2ccc(F)cc2)C(Cl)(Cl)Cl)ncn1` (centres undefined), the Potency result is “inactive”.

For the compound `CCOP(=O)(Nc1ccccc1)OCC`, the Potency result is “inactive”.

Consider `CCCC1OP(N)(=O)OCC1CC` (centres undefined), for which the Potency entry was “inactive”.

With `CC(=O)Nc1ccc([As](=O)(O)O)cc1`, the Potency entry is “inactive”.

For `O=C(O)c1ccccc1[As](=O)(O)O`, the Potency result was “inactive”.

With `O=P(Nc1nc2ccc(Cl)cc2s1)(c1ccccc1)c1ccccc1`, the Potency entry was “inactive”.

Turning to `CN(C)P(=O)(N(C)C)n1c(Nc2ccccc2)nnc1-c1ccccc1`, the Potency result was “inactive”.

`CCN(N=Nc1nonc1N)c1nonc1N`: the Potency entry is “inactive”.

With `Nc1cccc2ccc([As](=O)(O)O)cc12`, the Potency entry was “inactive”.

In the case of `O=C(Nc1cc([As](=O)(O)O)ccc1O)c1ccccc1`, the Potency entry was “inactive”.

On to `O=P1(N(CCCl)CCCl)OCCCS1` (centres undefined), for which the Potency entry is “inactive”.

As to `COC(=O)C1(C)COP(=O)(Nc2ccccc2)OC1` (centres undefined), the Potency entry is “inactive”.

Turning to `O=[N+]([O-])c1cccc(NC2=NCC(CBr)S2)c1` (centres undefined), the Potency result was “inactive”.

For the compound `O=C(O)CNc1ccc([As](=O)(O)O)cc1`, the Potency entry is “inactive”.

Regarding `CC(C)(C)C(=O)NC(Sc1ccncn1)C(Cl)(Cl)Cl` (centres undefined), the Potency entry was “inactive”.

Regarding `O=[N+]([O-])c1ncn(CCn2ncnc2[N+](=O)[O-])n1`, the Potency entry is “inactive”.
